Values quoted from earlier work, collected in patent publication US10881637B2, “Intranasal and transdermal administration of kappa-opioid-receptor agonists: salvinorin A for the treatment of neuropsychiatric and addictive disorders” (priority 2015, dated 2021).
Like-named read-outs stand apart in the source and are kept apart here.

Protein sequences, listed by entry. Tags and fused reporters are not part of them. Lines headed by an entry give the natural chain unless they say otherwise; changes in a name come on top.
UniProt P41145: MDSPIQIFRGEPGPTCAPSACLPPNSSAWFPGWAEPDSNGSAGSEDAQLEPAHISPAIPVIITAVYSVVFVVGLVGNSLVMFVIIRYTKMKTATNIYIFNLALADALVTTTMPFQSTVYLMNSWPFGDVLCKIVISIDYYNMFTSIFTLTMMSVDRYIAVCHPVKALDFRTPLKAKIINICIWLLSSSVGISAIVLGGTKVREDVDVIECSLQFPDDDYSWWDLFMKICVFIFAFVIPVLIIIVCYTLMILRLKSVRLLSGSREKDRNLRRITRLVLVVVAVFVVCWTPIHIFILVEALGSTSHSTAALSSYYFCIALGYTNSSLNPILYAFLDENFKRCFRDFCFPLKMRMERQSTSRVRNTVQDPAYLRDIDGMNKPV

Target: kappa-opioid receptor (Homo sapiens, UniProt P41145)
Conditions: cited from earlier work

In the case of COC(=O)[C@@H]1C[C@H](OC(C)=O)C(=O)[C@H]2[C@@]1(C)CC[C@H]1C(=O)O[C@H](c3ccoc3)C[C@]21C [salvinorin A], the kappa-opioid-receptor activity is given as “uniquely selective kappa-opioid-receptor agonist” and the kappa-opioid-receptor activity (listed as Salvinorin A) is given as “selective kappa-opioid-receptor agonist”.
